The values that follow come from US10441562B2, “Aromatic farnesyl compound and application thereof” (INSTITUTE OF MICROBIOLOGY, CHINESE ACADEMY OF SCIENCES, priority 2015, dated 2019).

The structures appear in SMILES notation. pIC50: −log10 of the molar value.

This assay has as its target T1, HMG-CoA reductase (Homo sapiens, UniProt P04035).
T1 sequence (P04035 426-888 limits assumed): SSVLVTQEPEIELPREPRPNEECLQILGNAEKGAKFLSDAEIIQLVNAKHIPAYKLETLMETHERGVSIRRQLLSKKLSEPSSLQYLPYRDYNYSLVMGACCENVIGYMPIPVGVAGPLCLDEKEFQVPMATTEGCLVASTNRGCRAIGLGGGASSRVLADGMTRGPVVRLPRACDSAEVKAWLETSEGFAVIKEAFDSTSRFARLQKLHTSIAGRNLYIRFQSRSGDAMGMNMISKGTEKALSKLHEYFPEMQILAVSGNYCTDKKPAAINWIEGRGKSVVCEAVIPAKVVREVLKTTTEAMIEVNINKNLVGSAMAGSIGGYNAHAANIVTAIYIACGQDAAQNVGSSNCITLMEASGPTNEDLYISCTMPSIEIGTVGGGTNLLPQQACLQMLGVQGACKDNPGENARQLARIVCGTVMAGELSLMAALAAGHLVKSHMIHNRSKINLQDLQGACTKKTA
The assay can be described thus: HMG-CoA reductase inhibitory activity test in vitro. The class given is biochemical.

In turn, `CC(C)c1c(C(=O)Nc2ccccc2)c(-c2ccccc2)c(-c2ccc(F)cc2)n1CC[C@@H](O)C[C@@H](O)CC(=O)O` [atorvastatin, reference compound] had a pIC50 of 4.51.

One may read the pIC50 as the negative decadic logarithm of the IC50, by convention in mol/L. A low value points to a high IC50.
